Sequences of proteins named here, by UniProt entry; tags and fusion partners are left off.
UniProt P23975, whole entry: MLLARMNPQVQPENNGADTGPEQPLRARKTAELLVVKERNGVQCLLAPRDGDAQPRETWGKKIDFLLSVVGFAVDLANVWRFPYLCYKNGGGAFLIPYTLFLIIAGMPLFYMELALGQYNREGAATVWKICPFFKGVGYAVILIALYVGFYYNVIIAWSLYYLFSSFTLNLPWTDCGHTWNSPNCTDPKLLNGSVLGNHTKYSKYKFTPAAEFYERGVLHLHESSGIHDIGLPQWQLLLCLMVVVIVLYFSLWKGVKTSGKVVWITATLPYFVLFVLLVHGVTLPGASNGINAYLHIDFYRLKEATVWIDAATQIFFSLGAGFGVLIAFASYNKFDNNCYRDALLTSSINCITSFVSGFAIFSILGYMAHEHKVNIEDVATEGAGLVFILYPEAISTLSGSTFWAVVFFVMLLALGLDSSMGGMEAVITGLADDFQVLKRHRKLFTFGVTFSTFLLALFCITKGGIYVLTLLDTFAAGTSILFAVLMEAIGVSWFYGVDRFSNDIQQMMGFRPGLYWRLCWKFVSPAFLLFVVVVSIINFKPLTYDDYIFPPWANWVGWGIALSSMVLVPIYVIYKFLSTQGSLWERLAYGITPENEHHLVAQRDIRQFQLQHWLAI
UniProt P31645, whole entry: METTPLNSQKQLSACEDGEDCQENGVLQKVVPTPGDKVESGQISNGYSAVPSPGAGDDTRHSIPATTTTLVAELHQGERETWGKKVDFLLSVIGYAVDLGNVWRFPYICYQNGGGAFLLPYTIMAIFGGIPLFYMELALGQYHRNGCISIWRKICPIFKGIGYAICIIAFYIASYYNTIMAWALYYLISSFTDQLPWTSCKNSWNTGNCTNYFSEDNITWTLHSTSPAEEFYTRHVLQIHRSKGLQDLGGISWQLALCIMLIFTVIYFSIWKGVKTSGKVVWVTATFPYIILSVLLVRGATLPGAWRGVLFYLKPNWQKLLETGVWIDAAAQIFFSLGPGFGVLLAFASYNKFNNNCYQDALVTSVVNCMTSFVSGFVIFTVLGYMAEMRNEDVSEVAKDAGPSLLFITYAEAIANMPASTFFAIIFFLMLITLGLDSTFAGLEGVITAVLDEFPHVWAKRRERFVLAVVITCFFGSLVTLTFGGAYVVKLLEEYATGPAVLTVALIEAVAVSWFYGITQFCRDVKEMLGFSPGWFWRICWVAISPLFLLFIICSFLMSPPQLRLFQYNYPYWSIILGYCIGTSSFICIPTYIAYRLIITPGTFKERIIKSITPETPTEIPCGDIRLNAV
UniProt Q01959, whole entry: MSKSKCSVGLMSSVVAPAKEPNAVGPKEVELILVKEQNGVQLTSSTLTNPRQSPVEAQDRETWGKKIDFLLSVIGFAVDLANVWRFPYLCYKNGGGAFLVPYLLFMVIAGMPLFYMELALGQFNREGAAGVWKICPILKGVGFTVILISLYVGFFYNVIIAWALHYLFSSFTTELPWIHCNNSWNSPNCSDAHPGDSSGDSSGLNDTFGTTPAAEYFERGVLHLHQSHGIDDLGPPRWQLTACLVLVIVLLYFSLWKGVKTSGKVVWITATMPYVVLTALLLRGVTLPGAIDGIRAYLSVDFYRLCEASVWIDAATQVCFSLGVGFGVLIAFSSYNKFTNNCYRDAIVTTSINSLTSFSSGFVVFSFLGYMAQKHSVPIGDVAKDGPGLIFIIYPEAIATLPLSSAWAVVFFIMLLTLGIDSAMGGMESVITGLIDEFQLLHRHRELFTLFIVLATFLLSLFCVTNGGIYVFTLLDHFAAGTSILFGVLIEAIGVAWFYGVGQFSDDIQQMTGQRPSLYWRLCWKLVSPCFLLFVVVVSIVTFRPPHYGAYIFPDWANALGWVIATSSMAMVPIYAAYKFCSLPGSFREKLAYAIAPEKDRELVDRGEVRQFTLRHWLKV

According to patent EP0167459B1, “2-Amino oxazolines and process for their preparation” (priority 1984, dated 1986):

Assays:
NAd = NAd (Homo sapiens, UniProt P23975); experiment: Inhibition of neurotransmitter uptake in vitro, noradrenaline; type: cell-based; conditions: read-out: UPTAKE NEUROTR[…] VITRO IC 50 M NAd; NAd = Noradrénaline; tested form: HCl
RECEPTEURS α2 = experiment: Affinity for the α2 receptor in vitro; type: binding; conditions: read-out: AFFINITE RECEPTEURS α2 IN VITRO IC 50 M; tested form: HCl
5-HT = 5-HT (Homo sapiens, UniProt P31645); experiment: Inhibition of neurotransmitter uptake in vitro, 5-HT; type: cell-based; conditions: read-out: UPTAKE NEUROTR[…] VITRO IC 50 M 5-HT; 5-HT = 5-hydroxytryptophane (so in the source); tested form: HCl
DA = DA (Homo sapiens, UniProt Q01959); experiment: Inhibition of neurotransmitter uptake in vitro, dopamine; type: cell-based; conditions: read-out: UPTAKE NEUROTR[…] VITRO IC 50 M DA, tested form: HCl

SMILES | IC50 (NAd) [µM] | IC50 (RECEPTEURS α2) [µM] | IC50 (5-HT) [µM] | IC50 (DA) [µM]
NC1=NC(Cc2ccccc2)CO1 (single isomer, unassigned) [ex. 14] | 1 | 0.04 |  | 
COc1ccccc1CC1COC(N)=N1 (centres unmarked) | 1 | 0.0037 |  | 
NC1=NC(Cc2ccccc2)CO1 (single isomer, unassigned) [ex. 9] | 1.2 | 0.036 | 53 | 8.3
